Measurements as given in PubChem BioAssay AID624466 (The Scripps Research Institute Molecular Screening Center, 2012).
The entries are a selection whose mix differs from that of the whole data set. Some structures show a salt or complex split into parts, the way the source records it. The source made the active and inactive calls.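 The calls were made as follows: active = inhibition above a per-plate cutoff, the mean inhibition of test compounds on that plate plus 3 SD (cut at about 49% in these data); inactive = the rest.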

Sequences of proteins named here, by UniProt entry; tags and fusion partners are left off.
UniProt Q96RJ0, whole entry: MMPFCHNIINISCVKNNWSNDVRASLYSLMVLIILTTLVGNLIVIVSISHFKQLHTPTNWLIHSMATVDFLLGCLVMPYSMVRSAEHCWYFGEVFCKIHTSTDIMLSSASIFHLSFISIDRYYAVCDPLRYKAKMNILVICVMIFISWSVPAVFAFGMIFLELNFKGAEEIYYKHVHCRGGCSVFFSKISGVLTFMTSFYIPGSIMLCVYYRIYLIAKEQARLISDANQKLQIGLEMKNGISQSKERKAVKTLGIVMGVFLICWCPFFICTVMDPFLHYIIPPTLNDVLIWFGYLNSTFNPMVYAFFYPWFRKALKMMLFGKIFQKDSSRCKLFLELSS

Each molecule was assayed against Trace amine-associated receptor 1 (Homo sapiens) (UniProt Q96RJ0) (assay: blockers of beta-PEA-driven TAAR1 calcium signal – Fluo-8 calcium fluorescence, CHO RD-HGA16 cells, primary screen (AID 624466;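 also: 0% = DMSO plus EC80 beta-PEA response and 100% = DMSO alone without agonist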)). Details: CHO RD-HGA16 TAAR1, Fluo-8 calcium fluorescence, antagonist; at 3 µM; hits give high values.

Row | Structure (SMILES) | inhibition
1 | Cc1cc(C)cc(OP(C)(=O)Nc2cccc(C(F)(F)F)c2)c1 (centres undefined) | inactive: 8.65%
2 | O=C1C(O)=C([N+](=O)[O-])C(=O)C(O)=C1[N+](=O)[O-] | inactive: -22.1%
3 | COc1ccc(OP(C)(=O)Nc2ccccc2Br)cc1 (centres undefined) | inactive: -7.32%
4 | COc1ccccc1OP(C)(=O)Nc1ccc(C)c(C)c1 (centres undefined) | inactive: 5.56%
5 | CP(=O)(OCCOc1ccccc1)OCCOc1ccccc1 | inactive: -16.9%
6 | CCCCCCCCCCCCCCCC1C[N+](C)(C)CCOP(C)(=O)O1 (centres undefined) | active: 54.1%
7 | CP(=O)(Nc1ccc(Cl)cc1Cl)Oc1ccccc1 (centres undefined) | inactive: -24.6%
8 | COc1ccccc1OP(C)(=O)Nc1ccc(Br)cc1 (centres undefined) | inactive: -15.6%
9 | CN(C)CCOC(=O)C(O)(c1ccccc1)C1CCCC1 (centres undefined) | inactive: -11.2%
10 | COc1ccc(OP(C)(=O)Nc2ccccn2)cc1 (centres undefined) | inactive: -2.97%
11 | O=[N+]([O-])c1cc([N+](=O)[O-])c(Nc2ccccn2)c([N+](=O)[O-])c1 | inactive: 4.44%
12 | Cc1c(NP(C)(=O)Oc2ccc(C(C)C)cc2)c(=O)n(-c2ccccc2)n1C (centres undefined) | inactive: -1.97%
13 | CCc1ccc(OP(C)(=O)O)cc1 | inactive: -9.42%
14 | COc1ccccc1OP(C)(=O)Nc1ccc(C)cc1C (centres undefined) | inactive: -18.3%
15 | CP(=O)(Nc1ccccn1)Oc1ccccc1 (centres undefined) | inactive: 6.52%
16 | COc1ccc(OP(C)(=O)Nc2ccc(Br)cc2)cc1 (centres undefined) | inactive: -3.36%
17 | CCN(CC)CC(O)COC(=O)C(O)(c1ccccc1)C1CCCCC1 (centres undefined) | inactive: -2.33%
18 | CCc1ccc(OP(C)(=O)Nc2cccnc2)cc1 (centres undefined) | inactive: -38.8%
19 | CP(=O)(Oc1ccccc1)N1CCOC1=O (centres undefined) | inactive: 4.34%
20 | O=C(OCCCN1CCCC1)C(O)(c1ccccc1)C1CCCCC1 (centres undefined) | inactive: 6.95%
21 | COc1ccccc1OP(C)(=O)Nc1c(C)n(C)n(-c2ccccc2)c1=O (centres undefined) | inactive: 6.85%
22 | CP(=O)(Nc1ccc(Cl)cc1)Oc1ccc(F)cc1 (centres undefined) | inactive: -2.26%
23 | CC(C)(C)c1ccc(OP(C)(=O)O)cc1 | inactive: 2.79%
24 | COc1ccccc1OP(C)(=O)Nc1ccccc1Br (centres undefined) | inactive: -1.34%
25 | CN(C)C(=O)c1c([N+](=O)[O-])cc([N+](=O)[O-])cc1[N+](=O)[O-] | inactive: 8.46%

Row | Structure (SMILES) | inhibition
26 | Nc1ccc2c(ccc3cccnc32)n1.O=[N+]([O-])c1cc([N+](=O)[O-])c(O)c([N+](=O)[O-])c1 | inactive: -4.02%
27 | CP(=O)(OC12CC3CC(CC(C3)C1)C2)OC12CC3CC(CC(C3)C1)C2 | inactive: -20.6%
28 | CCOC(=O)c1ccc(NP(C)(=O)Oc2ccc(Cl)cc2)cc1 (centres undefined) | inactive: 8.03%
29 | COc1ccc(OP(C)(=O)Nc2cccc(Br)c2)cc1 (centres undefined) | inactive: -0.13%
30 | COc1ccc(NP(C)(=O)Oc2ccccc2OC)cc1 (centres undefined) | inactive: 0.28%
31 | CN(C)CCOC(=O)C(O)(c1ccccc1)C1CCCCC1 (centres undefined) | inactive: -8.95%
32 | O=[N+]([O-])c1cc([N+](=O)[O-])c(NCC2CCS(=O)(=O)C2)c([N+](=O)[O-])c1 (centres undefined) | inactive: -2.97%
33 | Cc1cc(-c2cccc3ccccc23)c(C)cn1.O=[N+]([O-])c1cc([N+](=O)[O-])c(O)c([N+](=O)[O-])c1 | inactive: -17.1%
34 | O=[N+]([O-])c1ccc(OP2(=O)COCCO2)cc1 (centres undefined) | inactive: 5.11%
35 | Cc1c(C(c2ccc3c(c2)OCO3)c2c(C)n(C)n(-c3ccccc3)c2=O)c(=O)n(-c2ccccc2)n1C.O=[N+]([O-])c1cc([N+](=O)[O-])c(O)c([N+](=O)[O-])c1 | inactive: -8.93%
36 | CP(=O)(Nc1ccc(SC(F)(F)F)cc1)Oc1ccc(F)cc1 (centres undefined) | inactive: 6.2%
37 | CCOP(=O)(CC)OCC | inactive: 0.87%
38 | CCOP(C)(=S)SCC(=O)NC(C)(CC)C(=O)O (centres undefined) | inactive: 10.7%
39 | CP(=O)(Nc1ccc2c(c1)OCCO2)Oc1ccccc1 (centres undefined) | inactive: 1.19%
40 | O=[N+]([O-])c1cc([N+](=O)[O-])c(C(F)(F)F)c([N+](=O)[O-])c1O | inactive: -10.3%
41 | Cc1ccccc1NP(C)(=O)Nc1ccccc1C | inactive: -0.92%
42 | O=[N+]([O-])c1cc([N+](=O)[O-])c(Nc2ccc(Cl)cc2)c([N+](=O)[O-])c1 | inactive: 35.2%
43 | CC(C)c1ccc(OP(C)(=O)Nc2ccc(SC(F)(F)F)cc2)cc1 (centres undefined) | inactive: 0.06%
44 | CP(=O)(Nc1ccccc1F)Oc1ccccc1 (centres undefined) | inactive: -24%
45 | O=C(OCCN1CCN(CCOCc2ccccc2)CC1)C(O)(c1ccccc1)c1ccccc1 | inactive: 10.2%
46 | O=C(OC1CN2CCC1CC2)c1ccc([N+](=O)[O-])cc1 (centres undefined) | inactive: -29.4%
47 | COc1ccc2c(c1O)-c1c(O)c(OC)cc3c1[C@H](C2)[N+](C)(C)CC3.O=[N+]([O-])c1cc([N+](=O)[O-])c([O-])c([N+](=O)[O-])c1[O-] | inactive: 14.7%
48 | CCN(CC)CCCNc1ccccc1[N+](=O)[O-].O=[N+]([O-])c1cc([N+](=O)[O-])c(O)c([N+](=O)[O-])c1 | inactive: -2.59%
49 | COc1ccc(OP(C)(=O)Nc2ccc(SC(F)(F)F)cc2)cc1 (centres undefined) | inactive: 4.41%
